In published antibiotic growth screens (doi:10.1038/s41589-023-01349-8) one finds relative growth data, which are given here for 83 molecules.

The other results are listed elsewhere or left out.

The experiment deals with A. baumannii ATCC 17978. As to the kind of experiment: relative growth (fraction of control); higher = less inhibition. Conditions: 50 µM.
`CC(O)CC(C)(C)O` (stereo not drawn) displayed a relative growth of 1.07.
As for `C[C@H](CO)N1C[C@H](C)[C@@H](CN(C)C(=O)CN(C)C)Oc2ncc(C#CC(C)(C)O)cc2C1=O`, the relative growth was determined as 1.05.
In the case of `CCN1C(=O)[C@H]2[C@H](O)CS[C@H]2C1=O`, the relative growth turned out to be 0.878.
Regarding `N#C[C@H](N)c1ccc(Cl)cc1`, the relative growth was 0.998.
As to `COCC#Cc1ccc2c(c1)O[C@@H](CN(C)S(C)(=O)=O)[C@@H](C)CN([C@@H](C)CO)S2(=O)=O`, the relative growth was found to be 1.02.
For the molecule `Cc1ccc(S(=O)(=O)N2C[C@@H](O)COC[C@@H]3O[C@H](CC(=O)N[C@H]4CCN(Cc5ccccc5)C4)CC[C@H]32)cc1`, the relative growth turned out to be 1.11.
On to `CNC(=O)c1c(O)c2ccccc2n(C)c1=O`, for which the relative growth was 1.
With `CO[C@@H]1CN(C)C(=O)c2ccc(NS(=O)(=O)c3cn(C)cn3)cc2OC[C@H](C)N(Cc2cccc(F)c2)C[C@@H]1C`, the relative growth is 0.944.
In turn, `Cn1c(=O)c2[nH]c(Br)nc2n(C)c1=O` returned a relative growth of 1.08.
`O=C(C[C@@H]1CC[C@@H]2[C@H](COC[C@@H](O)CN2S(=O)(=O)c2ccccc2)O1)N1CCOCC1` yielded a relative growth of 1.03.
The molecule `C[C@H]1CN([C@@H](C)CO)S(=O)(=O)c2ccc(C#CC3CC3)cc2O[C@@H]1CN(C)Cc1ccc(F)cc1` returned a relative growth of 1.31.
Take `C[C@H]1CN([C@@H](C)CO)S(=O)(=O)c2ccc(C#CC3CC3)cc2O[C@@H]1CN(C)C(=O)Cc1ccncc1`: the relative growth came out at 0.876.
For `CC(C)C[C@H]1NC(=O)N(C)C1=O`, the relative growth amounted to 0.89.
`C[C@H](O)C#Cc1ccc2c(c1)O[C@H](CN(C)C(=O)c1ccncc1)[C@@H](C)CN([C@@H](C)CO)S2(=O)=O` had a relative growth of 1.08.
In turn, `COC(=O)CCCCC(=O)c1[nH]c(=O)[nH]c1C` showed a relative growth of 0.948.
The molecule `O=c1[nH]nc(N2CCSCC2)[nH]1` registered a relative growth of 0.977.
Regarding `Cc1csc2sc(C(=O)Oc3ccc(Cl)cc3)c(C)c12`, the relative growth was found to be 0.978.
In turn, `O=C(N[C@H]1C=C[C@H](CC(=O)N2CCOCC2)O[C@H]1CO)c1ccc2c(c1)OCO2` registered a relative growth of 1.31.
For the molecule `CCOC(=O)Cn1cnc2ccccc2c1=O`, the relative growth turned out to be 1.12.
In the case of `O=C(CCCCCCC(=O)Nc1ccccc1O)N/N=C/[C@H](O)[C@@H](O)[C@H](O)CO` it was 1.15; in that of `CC(C)(C)NCC(O)c1ccc(O)c(CO)c1` (stereo not drawn), 0.971; in that of `O=C(/C=C/c1ccccc1)c1ccc(O)cc1O`, 0.885.
In the case of `Clc1ccc(Sc2ccc(-c3ccccn3)s2)cc1` it was 0.962.
In the case of `O=C(NCCN1CCOCC1)c1cccs1` it was 1.13; in that of `COc1cccc(NC(=O)N[C@H]2C=C[C@H](CC(=O)N3CCOCC3)O[C@@H]2CO)c1`, 1.06; in that of `O=S(=O)(NCC[C@H]1CC[C@H](NS(=O)(=O)c2cccc(Cl)c2)[C@H](CO)O1)c1cccc(F)c1`, 0.996.
In turn, `NC(=O)CSc1nnc(Cc2cc(=O)[nH]c(=O)[nH]2)n1-c1ccccc1` displayed a relative growth of 1.06.
The same measure for `Cc1ccc(S[C@]2(C(=O)NCC(C)C)CC(=O)N(Cc3ccccc3)[C@@H]2c2ccc(CO)cc2)cc1`: 0.853; for `O=C(C[C@@H]1CC=CC[C@H](NC(=O)OCC2c3ccccc3-c3ccccc32)C(=O)OC[C@@H](Cc2c[nH]c3ccccc23)NC1=O)N[C@@H](CO)Cc1ccccc1`: 0.962; for `Nc1ccc(Oc2ccc3ccccc3c2Cl)c(Cl)c1`: 0.781.
The same measure for `COc1ccc(C(=O)Nc2ccc(CN3C(=O)[C@@]4(O[C@@H](CC(=O)N5CCC[C@H]5CO)[C@H]([Si](C)(C)c5ccc(OC)cc5)[C@H]4C)c4ccccc43)cc2)cc1`: 0.973; for `CCc1ccc(CCOc2ccc(CC3SC(=O)NC3=O)cc2)nc1.Cl` (stereo not drawn): 0.968.
The same measure for `Cn1c(=O)c2c(ncn2C)n(C)c1=O`: 0.94; for `C[C@@H]1CC[C@]2(C(=O)O[C@@H]3O[C@H](CO)[C@@H](O)[C@H](O)[C@H]3O)CC[C@]3(C)C(=CC[C@H]4[C@@]5(C)C[C@@H](O)[C@H](O)[C@@](C)(CO)[C@@H]5CC[C@]43C)[C@@H]2[C@]1(C)O`: 0.952.
For the molecule `C[C@@H]1CN([C@H](C)CO)S(=O)(=O)c2ccc(-c3cccc(F)c3)cc2O[C@@H]1CN(C)S(C)(=O)=O`, the relative growth stood at 0.989.
In the case of `NC(=NC(=O)N1CCOCC1)c1ccccc1` it was 0.758; in that of `O=C1CCc2c(ccc3ccccc23)O1`, 0.943.
The same measure for `C[C@H](CO)N1C[C@H](C)[C@H](CN(C)C(=O)C2CCOCC2)Oc2cc(-c3ccc(F)cc3)ccc2S1(=O)=O`: 1.06.
`COc1ccc(NC(=O)N2C[C@@H](O)COC[C@@H]3O[C@@H](CC(=O)NC4Cc5ccccc5C4)CC[C@H]32)cc1` showed a relative growth of 1.12.
In the case of `S=P(N1CC1)(N1CC1)N1CC1` it was 1.36; in that of `N[C@H](Cc1cc(I)c(Oc2ccc(O)c(I)c2)c(I)c1)C(=O)O`, 1.37.
The same measure for `Cc1ccc(S(=O)(=O)N[C@@H](Cc2ccccc2)C(=O)NCCn2cc(C(=O)NO)nn2)cc1`: 0.936.
With `CCN1CCCC1CNC(=O)c1cc(S(=O)(=O)CC)c(N)cc1OC` (stereo not drawn), the relative growth came to 1.2.
Molecule `O=S1(=O)CC[C@H](S(=O)(=O)N2CCOCC2)C1` came in with a relative growth of 1.06.
`CC(=O)O.N=C(N)N/N=C\c1c(Cl)cccc1Cl` had a relative growth of 0.903.
For `CN[C@H](CC(C)C)C(=O)N[C@@H]1C(=O)N[C@@H](CC(N)=O)C(=O)N[C@H]2C(=O)N[C@@H]3C(=O)C[C@H](C(=O)N[C@@H](C(=O)O)c4cc(O)cc(O)c4-c4cc3ccc4O)[C@H](O)c3ccc(c(Cl)c3)Oc3cc2cc(c3O[C@@H]2O[C@@H](CO)[C@@H](O)[C@H](O)[C@H]2O[C@H]2C[C@](C)(N)[C@H](O)[C@H](C)O2)Oc2ccc(cc2Cl)[C@H]1O`, the relative growth amounted to 0.96.
The same measure for `O=C(CN1CCOCC1)N[C@H]1CC[C@@H](CCNC(=O)C2CCCCC2)O[C@@H]1CO`: 0.946.
In the case of `Cc1cc(O)cc(=O)o1` it was 1.14; in that of `COc1ccc2[nH]c(S(=O)Cc3ncc(C)c(OC)c3C)nc2n1` (stereo not drawn), 1.25; in that of `O=C(NCCN1CCOCC1)C(=O)NC[C@H]1OCCN1S(=O)(=O)c1ccc(F)cc1`, 1.19.
`Cc1onc(-c2c(Cl)cccc2Cl)c1C(=O)N[C@@H]1C(=O)N2[C@@H]1SC(C)(C)[C@@H]2C(=O)[O-].[Na+]` yielded a relative growth of 1.07.
The same measure for `C/C=C/c1ccc2c(c1)O[C@@H](CN(C)S(=O)(=O)c1ccc(C)cc1)[C@@H](C)CN([C@H](C)CO)S2(=O)=O`: 1.15; for `C=CC[C@@H](CC(=O)NCCO)C(=O)N[C@H](COC(=O)[C@H](CC=C)CC(=O)OC(C)(C)C)Cc1c[nH]c2ccccc12`: 0.813.
Molecule `Cc1cc(F)ccc1S(=O)(=O)N1CCCO[C@@H]1CNC(=O)C(=O)NCc1ccncc1` gave a relative growth of 1.16.
In the case of `COc1ccccc1CNC(=O)C[C@H]1CC[C@H]2[C@@H](COC[C@@H](O)CN2C(=O)Nc2ccc(Cl)cc2)O1` it was 1.02; in that of `NC[C@H](c1ccco1)N1CCCCCC1`, 0.882; in that of `c1cc2c(cc1-c1nn[nH]n1)OCO2`, 0.96.
In the case of `COc1ccc([Si](C)(C)[C@@H]2[C@@H](CC(=O)N3Cc4ccccc4C[C@H]3CO)O[C@]3(C(=O)N(Cc4cccc(N5C(=O)c6cccc7cccc5c67)c4)c4ccccc43)[C@H]2C)cc1` it was 1.01; in that of `C[C@@H]1CN([C@@H](C)CO)S(=O)(=O)c2ccc(C#Cc3ccc(F)cc3)cc2O[C@H]1CN(C)S(C)(=O)=O`, 1.03.
`C[C@H]1[C@H]([Si](C)(C)F)[C@@H](CCO)O[C@]12C(=O)N(Cc1cccc(N(C=O)c3ccccc3)c1)c1ccccc12`: the relative growth is 0.898.
`O=C(C[C@H]1CC[C@H]2[C@@H](COC[C@@H](O)CN2S(=O)(=O)c2ccc(Cl)cc2)O1)N[C@@H]1CCN(Cc2ccccc2)C1`: the relative growth was found to be 0.928.
The same measure for `COc1ccc(-n2nc(C(N)=O)c3c2C(=O)N(c2ccc(N4CCCCC4=O)cc2)CC3)cc1`: 1.04; for `CC(C)NC(=O)N[C@@H]1C=C[C@@H](CC(=O)NCCN2CCCC2)O[C@H]1CO`: 1.01.
The molecule `COc1ccc(C(C)=O)c(O)c1` had a relative growth of 1.06.
On to `COCC#Cc1ccc2c(c1)O[C@H](CN(C)S(=O)(=O)c1cccc(OC)c1)[C@@H](C)CN([C@@H](C)CO)S2(=O)=O`, for which the relative growth was 1.06.
In the case of `O=C(C[C@@H]1CC[C@H](NS(=O)(=O)c2ccccc2F)[C@@H](CO)O1)NCCCN1CCOCC1` it was 1.04; in that of `COc1c(O)cc2c(c1O)[C@@H]1O[C@H](CO)[C@@H](O)[C@H](O)[C@H]1OC2=O`, 1.03.
The same measure for `CC(=O)Oc1cccc(C(=O)O)c1OC(C)=O`: 1.07; for `Nc1ncn(C(=O)c2ccccc2)n1`: 1.08.
In the case of `CC(=O)CCc1ccc(OC(C)=O)cc1`, the relative growth was determined as 1.01.
In the case of `CN(C)CC(=O)N[C@H]1CC[C@@H](CC(=O)NCCN2CCCCC2)O[C@@H]1CO`, the relative growth is 1.1.
In the case of `CC(C)[C@H]1CC[C@H](C(=O)N[C@H](Cc2ccccc2)C(=O)O)CC1` it was 1.29; in that of `CC(=O)N1c2ccccc2C2=NNC(=S)N[C@]21O`, 1.
The molecule `CCC(C)n1ncn(-c2ccc(N3CCN(c4ccc(OC[C@H]5CO[C@](Cn6cncn6)(c6ccc(Cl)cc6Cl)O5)cc4)CC3)cc2)c1=O.Cl.Cl` (stereo partly drawn) gave a relative growth of 1.39.
The same measure for `CO[C@H]1CN(C)C(=O)c2ccc(NS(C)(=O)=O)cc2OC[C@H](C)N(C(=O)C2CCOCC2)C[C@H]1C`: 1.06.
The same measure for `COc1ccccc1OCCNCC(O)COc1cccc2[nH]c3ccccc3c12` (stereo not drawn): 0.834; for `COc1cc(O)c2c(=O)c3cc(OC)c(OC)cc3oc2c1`: 0.901.
In the case of `CC(C)c1nc(CN(C)C(=O)N[C@H](C(=O)N[C@@H](Cc2ccccc2)C[C@H](O)[C@H](Cc2ccccc2)NC(=O)OCc2cncs2)C(C)C)cs1` it was 0.941.
Molecule `O=C(C[C@@H]1C=C[C@@H](NC(=O)Cc2ccccn2)[C@H](CO)O1)NCCCN1CCOCC1` yielded a relative growth of 1.01.
In turn, `CN(C)CCCNC(=O)C1CCNCC1` came in with a relative growth of 1.
As for `CO[C@H]1O[C@H](CO)[C@@H](OC(=O)c2ccc(Br)cc2)[C@@H]2OC(=O)[C@@H](Cc3ccccc3)C/C=C/C[C@H](Cc3ccccc3)C(=O)O[C@@H]12`, the relative growth was determined as 1.11.
In the case of `CO[C@@H]1CN(C)C(=O)c2ccc(NS(=O)(=O)CC(F)(F)F)cc2OC[C@H](C)N(Cc2nccs2)C[C@@H]1C`, the relative growth stood at 0.964.
Regarding `CN(C)CCCNC(=O)C[C@H]1CC[C@H](NS(=O)(=O)c2ccccc2)[C@@H](CO)O1`, the relative growth was found to be 1.11.
